The target of the assay is T1, HDAC10 (Homo sapiens, UniProt Q969S8).
T1 sequence (Q969S8 1-669): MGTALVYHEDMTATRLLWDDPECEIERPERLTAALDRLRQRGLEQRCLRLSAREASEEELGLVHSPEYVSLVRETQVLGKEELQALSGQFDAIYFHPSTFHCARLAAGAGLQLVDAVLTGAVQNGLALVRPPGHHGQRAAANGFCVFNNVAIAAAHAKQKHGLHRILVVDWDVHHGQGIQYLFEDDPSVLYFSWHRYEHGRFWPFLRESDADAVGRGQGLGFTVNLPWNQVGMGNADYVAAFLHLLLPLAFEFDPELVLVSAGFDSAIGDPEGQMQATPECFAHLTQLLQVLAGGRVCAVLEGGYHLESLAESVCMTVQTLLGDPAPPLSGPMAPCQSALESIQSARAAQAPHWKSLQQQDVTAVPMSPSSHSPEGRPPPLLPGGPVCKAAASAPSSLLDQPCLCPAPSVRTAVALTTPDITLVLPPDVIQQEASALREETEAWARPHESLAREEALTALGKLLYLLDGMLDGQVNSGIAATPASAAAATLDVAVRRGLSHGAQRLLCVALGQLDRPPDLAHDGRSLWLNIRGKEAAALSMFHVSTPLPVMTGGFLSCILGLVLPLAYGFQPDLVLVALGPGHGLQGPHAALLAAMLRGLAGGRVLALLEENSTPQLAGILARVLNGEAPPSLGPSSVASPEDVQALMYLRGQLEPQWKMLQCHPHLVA
The assay is described as follows: HDAC isoform inhibition assay. Particulars: read-out: IC50 HDAC10; tested at Nanosyn; 17 hours at 25 °C.

The values that follow come from article PMC2919064 (Journal of medicinal chemistry, 2010).

pIC50: −log10 of the molar value.

A word on the pIC50: it is the negative decadic logarithm of the IC50, by convention in mol/L. As for `O=C(CCCCCCC(=O)Nc1ccccc1)NO` [SAHA (1a), suberoylanilide hydroxamic acid, reference compound], the pIC50 was 7.14.
